Data as given in PubChem BioAssay AID1259415 (National Center for Advancing Translational Sciences (NCATS), 2018).
Hit rate of the full screen: of about 410,000 compounds, about 18,000 (4.4%) were called active. These results got no clear call from the source, so the numbers are uncertain. Cut-off read from the data, not from the text of the source: active = activity change below about -60%; inconclusive = no clear call, values can overlap the other calls; inactive = above about -39%.

test: qHTS Assay for inhibitors of the human cytomegalovirus (HCMV); conditions: HFF cells, HCMV-luciferase reporter, 72 h; at 57.5 µM; stronger effect = lower value
Excerpt: NCGC Assay Overview: Infection with human cytomegalovirus (HCMV) continues to pose significant threats for pregnant women and immunocompromised hosts. HCMV causes serious morbidity and mortality in transplant recipients, and congenital HCMV is the leading infectious cause of mental retardation and deafness in children. In the 1990s, the annual costs associated with the disease burden of congenital CMV were estimated at around $2 billion. A HCMV vaccine is not available yet and HCMV therapies result in intolerable side effects and emergence of drug resistant viruses. […] Towards this goal we have developed and characterized a luciferase HCMV reporter that was initially used in 96 well plates and then optimized to 1536-well plates for utilization in screening of the MLSMR collection, the NGCG diversity collection and the NCGC Pharmaceutical Collection of approved and investigational drugs.
NCGC Assay Protocol Summary:
This is a cell-based assay for HCMV inhibition in HFFs cells. The screening used 2 compound doses and the HCMV-luciferase at MOI of 1 PFU/cell. Cells were treated and infected with HCMV. At 72 h post infection cell lysates were collected and luciferase activity was determined using the Glomax-Multi + Detection System (Promega, Madison, WI). Data were normalized to the controls for basal activity (buffer only) and known HCMV inhibitors Salinmoycin.
1536-well assay protocol for the assay:
(1) Add 3 ul CMV/HFF cell culture. 1000 cells/well in DMEM nirmal media.
(2) Incubate 16 hr at 37C.
(3) Add 23 nl control compound, 10uM of Salinomycin.
(4) Add 23 nl compounds in DMSO solution.
(5) Add 3 ul CMV suspension. Final 1 puf/ul, Virus stock 2000pfu/ul
(6) Incubate 72 hrs at 37C.
(7) Add 4 ul OneGlo Luc Reagent.
(8) Incubate 5 min at room temperature.
% is set by controls: 0 for no effect and ±100 for the full control effect.

For `CC(=O)NC(SC(=S)N(CC(C)C)CC(C)C)C(Cl)(Cl)Cl` (stereo unspecified), which activity change, negative = inhibition is on record?
The activity change, negative = inhibition was inconclusive: -54.4%.

Which activity change, negative = inhibition does the source give for `N#C/C(=C\c1ccc(N(CCBr)CCBr)cc1)C(N)=O` here?
The activity change, negative = inhibition was inconclusive: -59.8%.

With `O=[As](O)(c1ccccc1)c1ccc(O)cc1` as the compound, how does the activity change, negative = inhibition read?
The activity change, negative = inhibition was inconclusive: -40.5%.

For `O=[N+]([O-])c1ncn(CCn2cnc([N+](=O)[O-])n2)n1`, which activity change, negative = inhibition is on record?
Its activity change, negative = inhibition is inconclusive: -45.5%.

With `CC(=O)NC(SC(=S)N(C)C)C(Cl)(Cl)Cl` (stereo unspecified) as the compound, how does the activity change, negative = inhibition read?
Its activity change, negative = inhibition is inconclusive: -52.6%.

Which activity change, negative = inhibition does the source give for `Cc1ccc(NP(=O)(Oc2ccccc2)Oc2ccccc2)nc1` here?
The activity change, negative = inhibition was inconclusive: -52%.

Which activity change, negative = inhibition does the source give for `CC(C)NC(=O)NP(=O)(Oc1ccccc1)Oc1ccccc1` here?
The activity change, negative = inhibition was inconclusive: -42.5%.

Which activity change, negative = inhibition does the source give for `O=[As](O)(c1ccc(O)cc1)c1ccccc1O` here?
The activity change, negative = inhibition was inconclusive: -47%.

Which activity change, negative = inhibition does the source give for `COP1(=S)c2c(C)nn(CCC#N)c2N=C(c2ccc(F)cc2)N1C` (stereo unspecified) here?
Its activity change, negative = inhibition is inconclusive: -47.2%.

With `O=C(O)C(=O)c1ccc(N(CCCl)CCCl)cc1` as the compound, how does the activity change, negative = inhibition read?
Its activity change, negative = inhibition is inconclusive: -43.5%.

With `CCOC(=O)Nc1ccc([As](=O)(O)O)c(O)c1` as the compound, how does the activity change, negative = inhibition read?
The activity change, negative = inhibition was inconclusive: -41.4%.

Which activity change, negative = inhibition does the source give for `NS(=O)(=O)c1cccc(NC(=O)COC(=O)C(O)(c2ccccc2)c2ccccc2)c1` here?
The activity change, negative = inhibition was inconclusive: -47.5%.

With `O=[As](O)(c1cccs1)c1cccs1` as the compound, how does the activity change, negative = inhibition read?
Its activity change, negative = inhibition is inconclusive: -58.1%.

With `CN(C(=O)Cc1ccc(Cl)c(Cl)c1)[C@@H]1CCCC[C@H]1N1CCCC1` as the compound, how does the activity change, negative = inhibition read?
The activity change, negative = inhibition was inconclusive: -47.3%.

For `Nc1cccc2c([As](=O)(O)O)cccc12`, which activity change, negative = inhibition is on record?
The activity change, negative = inhibition was inconclusive: -45.8%.

Which activity change, negative = inhibition does the source give for `O=[As](O)(c1cccc(O)c1)c1cccc(O)c1` here?
The activity change, negative = inhibition was inconclusive: -42.8%.
